## Membrane permeability of cyclic peptides

Collected by the curators of CycPeptMPDB (Li et al. 2023) from Taechalertpaisarn et al. 2022, doi:10.1021/acs.jmedchem.2c00010.

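The data file gives no further conditions (lipid, pH, time, direction or concentration), and values from different papers need not be comparable. Other peptides of the study may be missing here. Entries at the database's floor value (log10 P of -10) are not listed.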

PAMPA is the parallel artificial membrane permeability assay, which has no cells and reads passive diffusion.
Caco-2: transport across a human colon carcinoma cell monolayer.
P is given in units of 10^-6 cm/s (from log10 values with two decimals); larger means faster passage.
Cells with "n/a" have no entry in this list.

| SMILES | PAMPA (10^-6 cm/s) | Caco-2 (10^-6 cm/s) |
|---|---|---|
| CC[C@@H]1NC(=O)[C@@H](CC(C)C)NC(=O)[C@H](CCC(=O)N2CCCC2)NC(=O)[C@@H](CC(C)C)NC(=O)[C@H]2CCCN2C(=O)[C@H](CC(C)C)NC1=O | 0.035 | n/a |
| CC(C)C[C@@H]1NC(=O)[C@@H](CC(C)C)NC(=O)[C@@H](CCC(=O)N2CCCC2)NC(=O)[C@@H](CC(C)C)NC(=O)[C@@H](CC(C)C)NC(=O)[C@H]2CCCN2C1=O | 1.1 | n/a |
| CC(C)C[C@H]1NC(=O)[C@H]2CCCN2C(=O)[C@H](CCC(=O)N2CCCC2)NC(=O)[C@@H](CC(C)C)NC(=O)[C@@H](CC(C)C)NC(=O)[C@@H](CC(C)C)NC1=O | 1.3 | n/a |
| CC[C@@H]1NC(=O)[C@@H](CC(C)C)NC(=O)[C@H](CCC(=O)N2CCCC2)NC(=O)[C@@H](CC2CCCCC2)NC(=O)[C@H]2CCCN2C(=O)[C@H](CC(C)C)NC1=O | 0.41 | n/a |
| CC(C)C[C@@H]1NC(=O)[C@@H](CC(C)C)NC(=O)[C@H](CC(C)C)NC(=O)[C@@H](CCC(=O)N2CCCC2)NC(=O)[C@H]2CCCN2C(=O)[C@H](CC(C)C)NC1=O | 1.4 | 0.39 |
| CC(C)C[C@@H]1NC(=O)[C@@H](CCC(=O)N2CCCC2)NC(=O)[C@H](CC(C)C)NC(=O)[C@@H](CC(C)C)NC(=O)[C@H]2CCCN2C(=O)[C@H](CC(C)C)NC1=O | 0.14 | 0.17 |
| CC(C)C[C@@H]1NC(=O)[C@@H](CCC(=O)N2CCCC2)NC(=O)[C@H]2CCCN2C(=O)[C@H](CC(C)C)NC(=O)[C@H](Cc2ccc3ccccc3c2)NC(=O)[C@@H](CC(C)C)NC1=O | 8.1 | n/a |
| CC(C)C[C@@H]1NC(=O)[C@H](c2ccccc2)NC(=O)[C@@H](CC(C)C)NC(=O)[C@H](CC2CCCCC2)NC(=O)[C@@H](CCC(=O)N2CCCC2)NC(=O)[C@H]2CCCN2C1=O | 14 | n/a |
| CC[C@@H]1NC(=O)[C@@H](CC(C)C)NC(=O)[C@H](CCC(=O)N2CCCC2)NC(=O)[C@@H](C)NC(=O)[C@H]2CCCN2C(=O)[C@H](CC(C)C)NC1=O | 0.0041 | n/a |
| CC(C)C[C@@H]1NC(=O)[C@@H](CC(C)C)NC(=O)[C@H](C)NC(=O)[C@@H](CCC(=O)N2CCCC2)NC(=O)[C@H]2CCCN2C(=O)[C@H](CC(C)C)NC1=O | 0.21 | n/a |
| CC(C)C[C@@H]1NC(=O)[C@H](c2ccccc2)NC(=O)[C@@H](CC(C)C)NC(=O)[C@H](C)NC(=O)[C@@H](CCC(=O)N2CCCC2)NC(=O)[C@H]2CCCN2C1=O | 0.78 | n/a |
| CC(C)C[C@@H]1NC(=O)[C@@H](CCC(=O)N2CCCC2)NC(=O)[C@H]2CCCN2C(=O)[C@H](CC(C)C)NC(=O)[C@H](c2ccccc2)NC(=O)[C@@H](CC(C)C)NC1=O | 5.9 | n/a |
| CC[C@@H]1NC(=O)[C@@H](CC(C)C)NC(=O)[C@H](C)NC(=O)[C@@H](CCC(=O)N2CCCC2)NC(=O)[C@H]2CCCN2C(=O)[C@H](CC(C)C)NC1=O | 0.03 | n/a |
| CC(C)C[C@@H]1NC(=O)[C@H](Cc2ccc3ccccc3c2)NC(=O)[C@@H](CC(C)C)NC(=O)[C@H](CCC(=O)N2CCCC2)NC(=O)[C@@H](CC(C)C)NC(=O)[C@H]2CCCN2C1=O | 1.9 | n/a |
| CC(C)C[C@@H]1NC(=O)[C@@H](CC(C)C)NC(=O)[C@H](CC2CCCCC2)NC(=O)[C@@H](CCC(=O)N2CCCC2)NC(=O)[C@H]2CCCN2C(=O)[C@H](CC(C)C)NC1=O | 8.9 | n/a |

Excerpt, the final 2 entries:

SMILES	PAMPA (10^-6 cm/s)	Caco-2 (10^-6 cm/s)
CC(C)C[C@@H]1NC(=O)[C@H](Cc2ccc3ccccc3c2)NC(=O)[C@@H](CC(C)C)NC(=O)[C@H](CCC(=O)N2CCCC2)NC(=O)[C@@H](CC(C)C)NC(=O)[C@H]2CCCN2C1=O	1.9	n/a
CC(C)C[C@@H]1NC(=O)[C@@H](CC(C)C)NC(=O)[C@H](CC2CCCCC2)NC(=O)[C@@H](CCC(=O)N2CCCC2)NC(=O)[C@H]2CCCN2C(=O)[C@H](CC(C)C)NC1=O	8.9	n/a